Measured values published in patent publication US20110118209A1 (priority 2006, published 2011).
Like-named read-outs stand apart in the source and are kept apart here.

How the values were obtained:
Lewis Lung Carcinoma = settings: mouse, in vivo; for Highest non-toxic dosage: ip
mice = settings: in vivo; for Cumulative Mortality Total: both
[1] = lyophilized, −23° C.
[2] = female, CD-1 (Crl: CD-1(1CR) BR), mouse
[3] = male, CD-1 (Crl: CD-1(1CR) BR), mouse

O=P(O)(NCCCl)NCCCl [IPM, N,N′-di(2-chloroethyl)phosphorodiamidic acid]
Log kill total (Lewis Lung Carcinoma): >2.1 log10 | Highest non-toxic dosage (Lewis Lung Carcinoma): 100 mg kg^−1/dose | Cumulative Mortality Total (mice; CD-1 (Crl: CD-1(1CR) BR), mouse): 5/10 | Cumulative Mortality Total (mice; Crl: CD-1(1CR) BR, mouse): 5 of 10 | Mortality Study Day 9 F (mice; [2]): 0 | Mortality Study Day 10 F (mice; [2]): 0 | Mortality Study Day 11 F (mice; [2]): 0 | Mortality Study Day 1 to 5 F (mice; female, CD-1, mouse): 0 | Mortality Study Day 6 F (mice; female, CD-1, mouse): 1 | Mortality Study Day 7 F (mice; female, CD-1, mouse): 1 | Mortality Study Day 12 to 14 F (mice; female, CD-1, mouse): 0 | Mortality Study Day 8 F (mice; female, Crl: CD-1(1CR) BR, mouse): 2 | Mortality Study Day 1 to 5 M (mice; [3]): 0 | Mortality Study Day 10 M (mice; [3]): 0 | Mortality Study Day 11 M (mice; [3]): 1 | Mortality Study Day 12 to 14 M (mice; [3]): 0 | Cumulative Mortality M (mice; male, CD-1, mouse): 1/5 | Mortality Study Day 6 M (mice; male, CD-1, mouse): 0 | Mortality Study Day 7 M (mice; male, CD-1, mouse): 0 | Mortality Study Day 8 M (mice; male, Crl: CD-1(1CR) BR, mouse): 0 | Mortality Study Day 9 M (mice; male, Crl: CD-1(1CR) BR, mouse): 0 | sex difference in toxicity (mice; mouse, iv): greater toxicity in females than males | purity on storage, 0 months [1]: 97% | purity on storage, 1 months [1]: 88% | purity on storage, 3 months [1]: 70%

O=P1(N(CCCl)CCCl)NCCCO1 (stereo not shown) [CPA, cyclophosphamide]
Log kill total (Lewis Lung Carcinoma): >6.8 log10 | Highest non-toxic dosage (Lewis Lung Carcinoma): 200 mg kg^−1/dose | Days Delay (T − C) (16/C Mammary Tumor; 30 mg/kg IP Q 1dx 4 day 7): 0.4 days | Days Delay (T − C) (16/C Mammary Tumor; 50 mg/kg IP Q 1dx 4 day 7): 4.0 days

O=P1(NCCCl)OCCCN1CCCl (stereo not shown) [Ifos, Ifosfamide]
Log kill total (Lewis Lung Carcinoma): >4.5 log10 | Highest non-toxic dosage (Lewis Lung Carcinoma): 300 mg kg^−1/dose
